One molecule from PMC8224933, “Plasticity of seven-transmembrane-helix receptor heteromers in human vascular smooth muscle cells” (PLoS ONE, 2021) can be followed below.

For this experiment, the target named is T1, α1A-adrenoceptor (human (endogenous in hVSMCs), UniProt P35348 1-466).
T1 construct: α1A-adrenoceptor, endogenous in human vascular smooth muscle cells; also called α1A-AR; source: endogenous, hVSMCs (primary aortic smooth muscle cells, ATCC PCS-100-012), fixed cells
T1 sequence (looked up): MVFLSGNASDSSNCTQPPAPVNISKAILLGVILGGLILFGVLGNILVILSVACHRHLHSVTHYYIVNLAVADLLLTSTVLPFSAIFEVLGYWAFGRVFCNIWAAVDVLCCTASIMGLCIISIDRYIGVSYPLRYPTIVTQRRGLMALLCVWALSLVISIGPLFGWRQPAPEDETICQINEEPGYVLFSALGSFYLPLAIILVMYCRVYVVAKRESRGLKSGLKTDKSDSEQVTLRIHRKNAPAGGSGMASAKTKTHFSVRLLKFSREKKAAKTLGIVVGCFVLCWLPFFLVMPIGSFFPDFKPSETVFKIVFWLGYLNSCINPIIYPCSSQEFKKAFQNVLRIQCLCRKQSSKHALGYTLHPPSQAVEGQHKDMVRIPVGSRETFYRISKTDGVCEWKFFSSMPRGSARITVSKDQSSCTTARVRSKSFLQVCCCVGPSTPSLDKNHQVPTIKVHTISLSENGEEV
The experiment is described as follows: proximity ligation; Duolink II PLA on hVSMCs fixed with 4% paraformaldehyde; two primary antibodies from differing species (1:500, 37°C, 105 min); control: omission of one primary antibody; PLA signals per cell counted; cells untreated or incubated 72 h with non-targeting, CXCR4, ACKR3 or AVPR1A siRNA. As to conditions: partners not purified.

B1: atypical chemokine receptor 3 (receptor, human (endogenous in hVSMCs), UniProt P25106 1-362, looked up)
chain: MDLHLFDYSEPGNFSDISWPCNSSDCIVVDTVMCPNMPNKSVLLYTLSFIYIFIFVIGMIANSVVVWVNIQAKTTGYDTHCYILNLAIADLWVVLTIPVWVVSLVQHNQWPMGELTCKVTHLIFSINLFGSIFFLTCMSVDRYLSITYFTNTPSSRKKMVRRVVCILVWLLAFCVSLPDTYYLKTVTSASNNETYCRSFYPEHSIKEWLIGMELVSVVLGFAVPFSIIAVFYFLLARAISASSDQEKHSSRKIIFSYVVVFLVCWLPYHVAVLLDIFSILHYIPFTCRLEHALFTALHVTQCLSLVHCCVNPVLYSFINRNYRYELMKAFIFKYSAKTGLTKLIDASRVSETEYSALEQSTK
notes: atypical chemokine receptor 3 (ACKR3), endogenous in human vascular smooth muscle cells; also called ACKR3; source: endogenous, hVSMCs (primary aortic smooth muscle cells, ATCC PCS-100-012), fixed cells
On to B1, for which the “PLA signals after AVPR1A siRNA, % of NT siRNA” value was 91%.
